Assay results from PubChem BioAssay AID652163 (Broad Institute, 2013).
The entries are a selection whose mix differs from that of the whole data set. Active and inactive are the calls of the source.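 How the source made its calls: active means mean inhibition of at least 70% across replicates, with every replicate also reaching that level; inconclusive means mean inhibition reaches 70% but some replicates fall short; inactive means mean inhibition below 70%.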

The chains behind the UniProt entries cited, without tags or fusion partners.
UniProt P26447, whole entry: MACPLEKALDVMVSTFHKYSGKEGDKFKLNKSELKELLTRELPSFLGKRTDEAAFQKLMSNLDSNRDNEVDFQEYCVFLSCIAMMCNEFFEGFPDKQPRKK

The molecules below were run against Protein S100-A4 (Homo sapiens) (UniProt P26447) (assay: human S100A4 protein-peptide interaction blockers – biochemical, fluorescence polarization, TAMRA-MyoIIA peptide, primary screen (AID 652163)). Conditions: at 10.7 µM, hits give high values.
Summary of the method: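 System – human S100A4 monomer protein, biochemical binding assay · Buffer or medium – Calcium-containing HEPES buffer, pH 7.2 · Timing – 5 min between mix addition and reading · Also added – TAMRA-labelled myosin IIA heavy-chain peptide probe, 5 nM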

**Q.** How did the inhibition turn out when `O=[N+]([O-])c1cc([N+](=O)[O-])c(-c2cnn(-c3ccccc3)c2)c([N+](=O)[O-])c1` was run?
**A.** inactive: -2.32%

**Q.** Which inhibition does the source give for `O=P1(N(CCCl)CCCl)Nc2ccccc2N1` here?
**A.** inactive: -14.2%
